# Reference: PubChem BioAssay (NCI)
# Several values for one entry are separate records, joined by “and”; a condition that tells them apart may be missing. Equal entries are not always repeated. Only a part is listed here, and it is no random draw. Where a structure was tested more than once in an assay, its records may differ in their call. Activity calls are given as the source filed them. Rule as the data show it: active = growth inhibition above about 70%; inactive = the rest.
# Experiments:
# [1] = NCI Yeast Anticancer Drug Screen. Data for the rad50 strain (AID 155);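 also: 0% = growth of vehicle-only cultures of the same strain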; details: S. cerevisiae rad50 strain growth inhibition, stronger effect = higher value
# [2] = NCI Yeast Anticancer Drug Screen. Data for the mec2-1 strain (AID 157); details: S. cerevisiae mec2-1 strain, stronger effect = higher value
# [3] = NCI Yeast Anticancer Drug Screen. Data for the sgs1 mgt1 strain (AID 161);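 also: 0% = growth of cultures given vehicle only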; details: S. cerevisiae sgs1 mgt1 strain, stronger effect = higher value
# [4] = NCI Yeast Anticancer Drug Screen. Data for the cln2 rad14 strain (AID 165);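 also: 0% = growth equal to vehicle treated cultures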; details: S. cerevisiae cln2 rad14 strain, stronger effect = higher value
# [5] = NCI Yeast Anticancer Drug Screen. Data for the bub3 strain (AID 167); details: S. cerevisiae bub3 mutant strain, stronger effect = higher value
# [6] = NCI Yeast Anticancer Drug Screen. Data for the mlh1 rad18 strain (AID 175); details: S. cerevisiae mlh1 rad18 strain growth inhibition, stronger effect = higher value
# [7] = at 5.0 µM (retest, dose inferred, filed as 0.5)
# [8] = at 50.0 µM (retest, dose inferred, filed as 5.0)
SMILES,growth inhibition ([1]; at 50.0 µM),growth inhibition ([2]; at 50.0 µM),growth inhibition ([3]; at 50.0 µM),growth inhibition ([4]; at 50.0 µM),growth inhibition ([5]; at 50.0 µM),growth inhibition ([6]; at 50.0 µM),"growth inhibition [1, 7]","growth inhibition [1, 8]","growth inhibition [2, 7]","growth inhibition [2, 8]","growth inhibition [3, 7]","growth inhibition [3, 8]","growth inhibition [4, 7]","growth inhibition [4, 8]","growth inhibition [5, 7]","growth inhibition [5, 8]","growth inhibition [6, 7]","growth inhibition [6, 8]"
O=C(OCCC(F)([N+](=O)[O-])[N+](=O)[O-])OCC(F)([N+](=O)[O-])[N+](=O)[O-],active: 90.7%,active: 92.8%,active: 92.5%,active: 90.8%,active: 91%,active: 89%,,,,,,,,,,,,
CCCCCCCCCCCCCCC[C@@H]1C[N+](C)(C)CCO[P@@](C)(=O)O1,active: 91.1%,active: 92.8%,active: 90%,active: 89.7%,active: 85.9%,active: 92.3%,inactive: 47%,active: 98%,inactive: 34%,active: 99%,active: 90%,active: 83%,active: 85%,active: 75%,active: 94%,active: 85%,active: 70%,active: 98%
Cc1c([N+](=O)[O-])cc([N+](=O)[O-])c(-c2c([N+](=O)[O-])cc([N+](=O)[O-])c(C)c2[N+](=O)[O-])c1[N+](=O)[O-],inactive: 41.8%,inactive: 26%,active: 82.8%,inactive: 49.1%,inactive: 21.8%,inactive: 53.9%,inactive: 15%,active: 87%,inactive: 28%,active: 88%,inactive: 53%,active: 91%,inactive: 5%,active: 78%,inactive: 46%,active: 90%,inactive: 25%,active: 90%
C1CN1.NC(Cc1cnc[nH]1)C(=O)O (stereo not drawn),,,,,,,,active: 99% and inactive: 2% and inactive: -2%,inactive: 7% and inactive: -23% and inactive: -24%,active: 99% and inactive: 4% and inactive: 1%,,active: 99% and inactive: 5% and inactive: 3%,,active: 99% and inactive: 2% and inactive: -3%,,active: 98% and inactive: -5% and inactive: -8%,,active: 99% and inactive: 6% and inactive: 1%
CC1=CC2OC3CC4OC(=O)/C=C/C=C/C(=O)OCC/C(CO)=C/C(=O)OCC2(CC1)C4(C)C31CO1 (stereo not drawn),active: 92.2%,active: 94.5%,active: 94%,active: 92%,active: 92.8%,active: 91.6%,active: 98%,active: 98%,active: 99%,active: 99%,active: 100%,active: 99%,active: 99%,active: 99%,active: 99%,active: 99%,active: 97%,active: 98%
O=[N+]([O-])C1([N+](=O)[O-])CCCc2nonc21,active: 90.3%,active: 71%,active: 91.8%,active: 83%,active: 86.4%,active: 89.3%,inactive: 21%,inactive: 53%,inactive: 7%,inactive: 32%,inactive: 22%,inactive: 58%,inactive: 16%,inactive: 44%,inactive: 4%,inactive: 39%,inactive: 25%,inactive: 55%
CCCC[S+]1C2CCCCCCC21.O=[N+]([O-])c1cc([N+](=O)[O-])c(S(=O)(=O)[O-])c([N+](=O)[O-])c1,inactive: 46.4%,inactive: 27.9%,inactive: 64.5%,inactive: 45.8%,inactive: 56%,inactive: 41.1%,inactive: 2%,inactive: 29%,inactive: 9%,inactive: 63%,inactive: -4%,inactive: 44%,inactive: -13%,inactive: 26%,inactive: 6%,inactive: 43%,inactive: 21%,inactive: 56%
CC12CCC3(C)OCC(COC(=O)C(O)(c4ccccc4)C4CCCCC4)(CO1)N23 (stereo not drawn),active: 92.6%,active: 95.2%,active: 82.6%,active: 91.3%,active: 98.8%,active: 90.4%,inactive: 7%,inactive: 69%,inactive: -2%,inactive: 7%,inactive: 0%,inactive: 47%,inactive: 0%,inactive: 8%,inactive: 1%,inactive: 33%,inactive: -1%,inactive: 21%
CCN(CC)CCOC(=O)C(O)(c1ccc(C(C)C)cc1)c1ccc(C(C)C)cc1,active: 93.5%,active: 96.2%,active: 98.6%,inactive: 24%,active: 97.8%,active: 98.9%,inactive: -2%,inactive: 9%,inactive: 14%,inactive: 29%,inactive: -5%,inactive: 46%,inactive: -6%,inactive: -6%,inactive: -5%,inactive: 29%,inactive: 16%,active: 78%
CCCCCCCCCCCCCCCC[C@H]1C[N+](C)(C)CCO[P@](C)(=O)O1,active: 90.5%,active: 92%,active: 91.2%,active: 91.2%,active: 89.2%,active: 90.7%,inactive: 26%,active: 99%,inactive: 60%,active: 99%,active: 97%,active: 98%,inactive: 32%,active: 97%,inactive: 39%,active: 98%,inactive: 40%,active: 99%
O=C1c2cc([N+](=O)[O-])ccc2-c2c1cc([N+](=O)[O-])cc2[N+](=O)[O-].Oc1cccc2c1ccc1ccc3ccccc3c12,inactive: 69.3%,inactive: 57.4%,active: 99%,active: 99.1%,active: 99.1%,inactive: 63.5%,inactive: 23%,active: 96%,inactive: 20%,active: 86%,inactive: 14%,active: 99%,inactive: 4%,active: 98%,inactive: 24%,active: 97%,active: 86%,active: 98%
Cc1cccc2cc3ccc4ccccc4c3cc12.O=C1c2cc([N+](=O)[O-])ccc2-c2c1cc([N+](=O)[O-])cc2[N+](=O)[O-],inactive: 9.15%,inactive: 20.7%,inactive: 27.5%,inactive: -6.6%,inactive: 51.9%,inactive: 34%,inactive: 5%,inactive: 46%,inactive: 6%,inactive: 35%,inactive: 3%,inactive: 43%,inactive: 0%,inactive: -1%,inactive: 0%,,inactive: 11%,inactive: 46%
O=C1c2cc([N+](=O)[O-])ccc2-c2c1cc([N+](=O)[O-])cc2[N+](=O)[O-].c1cc2c3c(c1)ccc1cccc(c13)COC2,inactive: 35.6%,inactive: 35.4%,inactive: 21%,inactive: -1.4%,inactive: 18.7%,inactive: 62.2%,inactive: 10%,inactive: 26%,inactive: -3%,inactive: 11%,inactive: 21%,inactive: 39%,inactive: 6%,inactive: -2%,inactive: 1%,inactive: 6%,inactive: 14%,inactive: 26%
Cc1ccc2c(ccc3c(C)cccc32)c1C.O=[N+]([O-])c1cc([N+](=O)[O-])c(O)c([N+](=O)[O-])c1,inactive: 28.4%,inactive: 23.1%,inactive: 16%,inactive: 9.7%,active: 91%,inactive: 29.8%,inactive: 2%,inactive: 8%,inactive: 2%,inactive: 6%,inactive: 7%,inactive: 17%,inactive: -1%,inactive: -19%,inactive: 4%,inactive: 12%,inactive: 0%,inactive: 5%
Cc1c([N+](=O)[O-])cc([N+](=O)[O-])c(Cl)c1[N+](=O)[O-],inactive: 30.3%,active: 96.5%,active: 97.4%,inactive: -4.35%,active: 99.4%,active: 94.8%,inactive: 53%,active: 99%,inactive: 46%,active: 100%,inactive: 55%,active: 95%,inactive: 29%,active: 100%,inactive: 22%,active: 100%,inactive: 37%,active: 99%
N#C/C(=C\c1ccccc1Cc1ccccn1)c1ccccc1.O=[N+]([O-])c1cc([N+](=O)[O-])c(O)c([N+](=O)[O-])c1,inactive: 44.2%,inactive: 10.4%,inactive: 57.5%,inactive: -2.55%,inactive: 20.9%,inactive: 22.1%,,,,,,,,,,,,
CN1C2CC(O)CC1C1OC12.O=[N+]([O-])c1cc([N+](=O)[O-])c(O)c([N+](=O)[O-])c1,inactive: -19.4%,inactive: -4.2%,inactive: -15.2%,inactive: -28.3%,inactive: -0.7%,inactive: -4.3%,,,,,,,,,,,,
CCC(C)NC(C)(C)CO.O=[N+]([O-])c1cc([N+](=O)[O-])c(O)c([N+](=O)[O-])c1,inactive: 22.6%,inactive: 11.2%,inactive: 13.3%,inactive: -15.4%,inactive: -10.3%,inactive: 11.2%,,,,,,,,,,,,
ClCCN(CCCl)c1ccc(C2OCCO2)cc1.[C-]#[O+].[C-]#[O+].[C-]#[O+].[Cr],inactive: 14.2%,inactive: -4%,inactive: 6%,inactive: -17.1%,inactive: -1.35%,inactive: 16.8%,,,,,,,,,,,,
CCN(CC)CCOC(=O)C(O)(c1ccccc1)c1c(C)c(C)cc(C)c1C (stereo not drawn),inactive: -1.7%,inactive: 3.9%,inactive: -5.8%,inactive: -18.8%,inactive: 1.35%,inactive: 1.55%,,,,,,,,,,,,
CCN(CC)CCOC(=O)C(O)(c1cccc(C)c1)C1CCCCC1 (stereo not drawn),inactive: 28.1%,inactive: 5.65%,inactive: 19.3%,inactive: -9.95%,inactive: -14.9%,inactive: 17.4%,,,,,,,,,,,,
CCOC(=O)C(C)(C)C(OP(=O)(CC)OCC)=C(C)C (stereo not drawn),inactive: -9.4%,inactive: 7.5%,inactive: -4.7%,inactive: -5.05%,inactive: -2.05%,inactive: 5.55%,,,,,,,,,,,,
